Data reported in ChEMBL document CHEMBL5113496, “A systematic exploration of boceprevir-based main protease inhibitors as SARS-CoV-2 antivirals” (Eur J Med Chem, 2022).

Each compound was assayed against Replicase polyprotein 1ab (Severe acute respiratory syndrome coronavirus 2, UniProt P0DTD1) (assay: Inhibition of eGFP fused SARS-CoV2 main protease transfected in HEK293T/17 cells incubated for 72 hrs by fluorescence based flow cytometry analysis).
Type: cell-based

| SMILES | EC50 [µM] |
| --- | --- |
| CC(C)(C)C[C@H](NC(=O)[C@@H](NC(=O)NC(C)(C)C)C(C)(C)C)C(=O)N[C@H](C=O)C[C@@H]1CCNC1=O | > 5 |
| CC(C)(C)NC(=O)N[C@H](C(=O)N1CC2(CC2)C[C@H]1C(=O)N[C@H](C=O)C[C@@H]1CCNC1=O)C(C)(C)C | > 10 |
| CC(C)(C)NC(=O)NC(C(=O)N1C[C@H]2[C@@H]([C@H]1C(=O)N[C@@H](C[C@@H]1CCNC1=O)C(=O)C(=O)NCc1ccccc1)C2(C)C)C(C)(C)C (single isomer, unassigned) | > 10 |
| CC(C)(C)NC(=O)N[C@H](C(=O)N1C[C@H]2[C@@H]([C@H]1C(=O)N[C@@H](C[C@@H]1CCNC1=O)C(=O)C(=O)NC1CC1)C2(C)C)C(C)(C)C | > 10 |
| CCNC(=O)C(=O)[C@H](C[C@@H]1CCNC1=O)NC(=O)[C@@H]1[C@@H]2[C@H](CN1C(=O)[C@@H](NC(=O)NC(C)(C)C)C(C)(C)C)C2(C)C | > 10 |
